Measurements as given in US7786145B2, “Cyanoguanidine-based azole compounds useful as malonyl-CoA decarboxylase inhibitors” (Chugai Seiyaku Kabushiki Kaisha, priority 2003, dated 2010).

Protein sequences, listed by entry. Tags and fused reporters are not part of them. Residues count along the entry.
UniProt O95822, 40-493 limits assumed: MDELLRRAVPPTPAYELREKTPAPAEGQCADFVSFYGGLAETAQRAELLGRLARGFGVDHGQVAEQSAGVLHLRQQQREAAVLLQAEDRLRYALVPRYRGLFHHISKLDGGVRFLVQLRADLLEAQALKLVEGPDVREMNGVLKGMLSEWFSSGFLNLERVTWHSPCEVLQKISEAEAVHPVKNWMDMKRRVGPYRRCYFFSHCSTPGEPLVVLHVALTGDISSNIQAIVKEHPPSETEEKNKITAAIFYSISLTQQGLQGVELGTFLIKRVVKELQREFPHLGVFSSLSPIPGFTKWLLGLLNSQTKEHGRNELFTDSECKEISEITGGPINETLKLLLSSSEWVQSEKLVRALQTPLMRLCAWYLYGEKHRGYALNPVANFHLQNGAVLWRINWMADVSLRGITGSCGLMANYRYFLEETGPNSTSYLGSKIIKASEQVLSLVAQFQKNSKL

What was measured:
[1] = target: hMCD (malonyl-CoA decarboxylase) (Homo sapiens, UniProt O95822); experiment: In Vitro MCD Inhibitory Assay
Description: In Vitro MCD Inhibitory Assay:
The conversion of […] was assayed using a modified protocol as previously described by Kim, Y. S. and Kolattukudy, P. E. in 1978 (Arch. Biochem. Biophys 190:585 (1978)). As shown in eq. 1-3, the establishment of the kinetic equilibrium between malate/NAD and oxaloacetate/NADH was catalyzed by malic dehydrogenase (eq. 2). […] The accumulation of NADH can be continuously followed by monitoring the increase of fluorescence emission at 460 nm on a fluorescence plate reader. The fluorescence plate reader was calibrated using the authentic acetyl-CoA from Sigma. For a typical 96-well plate assay, the increase in the fluorescence emission (λex=360 nm, λem=460 nm, for NADH) in each well was used to calculate the initial velocity of hMCD. Each 50 μL assay contained 10 mM phosphate buffered saline (Sigma), pH 7.4, 0.05% Tween-20, 25 mM K2HPO4—KH2PO4 (Sigma), 2 mM Malate (Sigma), 2 mM NAD (Boehringer Mannheim), 0.786 units of MD (Roche Chemicals), 0.028 unit of CS (Roche Chemicals), 5-10 nM hMCD, and varying amounts of MCA substrate. Assays were initiated by the addition of MCA, and the rates were corrected for the background rate determined in the absence of hMCD.

[2] = test system: Isolated Working Rat Hearts; experiment: Glucose oxidation in isolated working rat hearts; set-up: unit not given here; settings: DMSO control
Description: Isolated Working Rat Heart Assay Protocol
Isolated working hearts from male Sprague-Dawley rats (300-350 g) are subjected to a 60-minute aerobic perfusion period. The working hearts are perfused with 95% O2, 5% CO2 with a modified Krebs-Henseleit solution containing 5 mM glucose; 100 μU/mL insulin; 3% fatty acid-free BSA; 2.5 mM free Ca^2+, and 0.4 to 1.2 mmol/L palmitate (Kantor et al., Circulation Research 86:580-588(2000)). The test compound is added 5 minutes before the perfusion period. DMSO (0.05%) is used as control.
Measurement of Glucose Oxidation Rates
Samples were taken at 10-minute intervals for measurements of experimental parameters. Glucose oxidation rates are determined by the quantitative collection of ^14CO2 produced by hearts perfused with buffer containing [U14]-Glucose (R. Barr and G. Lopaschuk, in “Measurement of cardiovascular function”, McNeill, J. H. ed., Chapter 2, CRC press, New York (1997)). After the perfusion, the ^14CO2 from the perfusae is subsequently released by injecting 1 mL of perfusate into sealed test tube containing 1 mL of 9N H2SO4. […] Samples were counted by standard procedures as described above. Average rates of glucose oxidation for each phase of perfusion are expressed as μmol/min/g dry wt as described above. […]

SMILES	Ki ([1]; Table 1, MCD inhibition)	Ki ([1]; Table 2, MCD inhibition)	GOX [2]
CCN(C(=NC#N)Nc1ccc(OCCCC(F)(F)F)cc1)c1ccc2nc(S)sc2c1	5.1 nM	5.1 nM	353
CN(C(=NC#N)Nc1ccc(OCCCC(F)(F)F)cc1)c1ccc2nc(S)sc2c1	2.8 nM		
CN(C(=NC#N)Nc1ccc(C(N)=O)cc1)c1ccc2nc(S)sc2c1	13.3 nM		
CCCN(C(=NC#N)Nc1ccc(OCCCC(F)(F)F)cc1)c1ccc2nc(S)sc2c1	3.3 nM		
CC(=O)Nc1ccc(NC(=NC#N)N(C)c2ccc3nc(S)sc3c2)cc1	73.3 nM		
CCN(C(=NC#N)Nc1ccc(NC(C)=O)cc1)c1ccc2nc(S)sc2c1	59.9 nM		
CCCN(C(=NC#N)Nc1ccc(C(=O)OC)cc1)c1ccc2nc(S)sc2c1	2.2 nM		
CC(C)CN(C(=NC#N)Nc1ccc(OCCCC(F)(F)F)cc1)c1ccc2nc(S)sc2c1	14.9 nM		
